Test results published in patent publication US7235366B1 (priority 1993, dated 2007).

The chains behind the UniProt entries cited, without tags or fusion partners. Where a name states a change or a piece, a line headed by the entry shows the natural chain unless it says otherwise.
UniProt P33534: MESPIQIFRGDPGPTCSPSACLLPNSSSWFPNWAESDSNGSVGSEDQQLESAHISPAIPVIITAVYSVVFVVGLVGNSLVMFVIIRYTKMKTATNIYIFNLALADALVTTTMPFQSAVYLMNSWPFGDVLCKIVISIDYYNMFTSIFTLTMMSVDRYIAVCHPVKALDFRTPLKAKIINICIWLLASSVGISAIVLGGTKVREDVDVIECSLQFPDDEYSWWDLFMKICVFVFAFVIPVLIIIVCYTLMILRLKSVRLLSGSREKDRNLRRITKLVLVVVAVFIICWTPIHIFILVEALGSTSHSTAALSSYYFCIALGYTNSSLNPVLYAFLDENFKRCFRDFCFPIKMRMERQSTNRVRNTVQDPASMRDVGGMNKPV
UniProt P35372, whole entry: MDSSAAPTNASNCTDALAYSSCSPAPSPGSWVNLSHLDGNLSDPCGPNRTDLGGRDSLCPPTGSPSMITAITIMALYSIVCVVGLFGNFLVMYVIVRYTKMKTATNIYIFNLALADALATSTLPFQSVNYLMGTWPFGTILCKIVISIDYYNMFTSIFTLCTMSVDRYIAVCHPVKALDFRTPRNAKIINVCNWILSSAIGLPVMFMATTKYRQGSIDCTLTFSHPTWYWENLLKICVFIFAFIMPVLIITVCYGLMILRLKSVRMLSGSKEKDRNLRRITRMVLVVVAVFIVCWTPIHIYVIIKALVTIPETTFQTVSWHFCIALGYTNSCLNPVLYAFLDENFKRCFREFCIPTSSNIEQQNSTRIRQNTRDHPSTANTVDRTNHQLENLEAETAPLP
UniProt P33535, whole entry: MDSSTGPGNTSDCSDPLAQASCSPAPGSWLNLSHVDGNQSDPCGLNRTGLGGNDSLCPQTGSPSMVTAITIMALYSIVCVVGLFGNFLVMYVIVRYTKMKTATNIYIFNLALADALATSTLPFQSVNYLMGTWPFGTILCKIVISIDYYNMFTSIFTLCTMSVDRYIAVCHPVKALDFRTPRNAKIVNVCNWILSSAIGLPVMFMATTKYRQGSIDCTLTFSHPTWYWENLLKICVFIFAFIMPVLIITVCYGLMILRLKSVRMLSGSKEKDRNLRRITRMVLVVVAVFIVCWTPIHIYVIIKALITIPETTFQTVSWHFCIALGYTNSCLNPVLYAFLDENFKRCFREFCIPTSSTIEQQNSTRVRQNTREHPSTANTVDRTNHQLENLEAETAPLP

Tests used:
Test in all cases: biochemical
[1] = biological target: cloned mouse κ receptor (Mus musculus, UniProt P33534)
[2] = biological target: T1, cloned human μ opioid receptor (Homo sapiens, UniProt P35372); assay type: binding
T1 construct: This fragment includes the entire coding region of the human μ opioid receptor; expressed in transfected cells; host or cells: COS-7 (transient, pcDNA3)

[3] = biological target: cloned rat μ receptor (Rattus norvegicus, UniProt P33535)

`CC(C)=CCN1CCC2(C)c3cc(O)ccc3CC1C2C` (centres unmarked) [pentazocine] was tested. Which Ki [1] did it give?
The Ki was 7.2 nM.

Which Ki [2] does the source give for `CCC12CCN(CC3(O)CC3)C(Cc3ccc(O)cc31)C2(C)C` (racemic) [Bremazocine] here?
The Ki was 1.4 nM.

`C[C@@H](NC(=O)[C@@H](N)Cc1ccc(O)cc1)C(=O)NCC(=O)N(C)[C@@H](Cc1ccccc1)C(=O)NCCO` [DAMGO, [D-Ala2,MePhe4,Gly-ol5]enkephalin] was tested. Which Ki [3] did it give?
The Ki was 2 nM.

How did the Ki ([2]; read-out: Binding potencies (Ki-nM) for the cloned human μ opioid receptor [^3H] DAMGO) turn out when `CN1CC[C@]23CCCC[C@H]2[C@H]1Cc1ccc(O)cc13` [Levorphanol] was run?
Its Ki is 1.9 nM.

With `C[C@@H](NC(=O)[C@@H](N)Cc1ccc(O)cc1)C(=O)NCC(=O)N(C)[C@@H](Cc1ccccc1)C(=O)NCCO` [[^3H]DAMGO] as the molecule, how does the Kd [3] read?
Its Kd is 0.57 nM.

Like-named read-outs stand apart in the source and are kept apart here.
